This note sets out measurements from patent publication US10420758B2, “Indolinyl-sulfonamide inhibitors of tankyrase and methods of use thereof” (The Board of Regents of the University of Texas System, priority 2015, dated 2019).

The target in one assay is T1, PARP11 (Homo sapiens, UniProt Q9NR21).
T1 sequence (Q9NR21 1-338): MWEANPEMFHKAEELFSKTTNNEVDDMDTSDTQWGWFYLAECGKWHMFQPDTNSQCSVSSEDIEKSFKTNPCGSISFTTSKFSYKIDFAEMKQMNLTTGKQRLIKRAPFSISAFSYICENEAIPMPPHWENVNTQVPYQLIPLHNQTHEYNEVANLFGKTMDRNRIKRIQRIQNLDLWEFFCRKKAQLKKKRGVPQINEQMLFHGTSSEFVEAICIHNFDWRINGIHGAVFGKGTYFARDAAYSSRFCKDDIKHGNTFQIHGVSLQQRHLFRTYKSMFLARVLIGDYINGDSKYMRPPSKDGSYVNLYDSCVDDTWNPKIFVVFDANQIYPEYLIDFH
Nature of the assay: PARP profiling, parsylation of immobilized histone. Type of assay: biochemical. The protocol: (§1) Performed by BPS Bioscience Inc., San Diego by following the BPS PARP or TNKS assay kit protocols. The enzymatic reactions were conducted in duplicate at room temperature for 1 hr in a 96 well plate coated with histone substrate. […] of reaction buffer (Tris.HCl, pH 8.0) contains NAD^+, biotinylated NAD^+, activated DNA, recombinant PARP enzyme and 10 μM of the test compound. Olaparib used at 20 nM concentration. After enzymatic reactions, 50 μL of Streptavidin-horseradish peroxidase was added to each well and the plate was incubated at room temperature for an additional 30 min. 100 μL of developer reagents were added to wells and luminescence was measured using a BioTek Synergy™ 2 microplate reader.

The target in a further assay is T2, PARP7 (Homo sapiens, UniProt Q7Z3E1).
T2 sequence (Q7Z3E1 1-657): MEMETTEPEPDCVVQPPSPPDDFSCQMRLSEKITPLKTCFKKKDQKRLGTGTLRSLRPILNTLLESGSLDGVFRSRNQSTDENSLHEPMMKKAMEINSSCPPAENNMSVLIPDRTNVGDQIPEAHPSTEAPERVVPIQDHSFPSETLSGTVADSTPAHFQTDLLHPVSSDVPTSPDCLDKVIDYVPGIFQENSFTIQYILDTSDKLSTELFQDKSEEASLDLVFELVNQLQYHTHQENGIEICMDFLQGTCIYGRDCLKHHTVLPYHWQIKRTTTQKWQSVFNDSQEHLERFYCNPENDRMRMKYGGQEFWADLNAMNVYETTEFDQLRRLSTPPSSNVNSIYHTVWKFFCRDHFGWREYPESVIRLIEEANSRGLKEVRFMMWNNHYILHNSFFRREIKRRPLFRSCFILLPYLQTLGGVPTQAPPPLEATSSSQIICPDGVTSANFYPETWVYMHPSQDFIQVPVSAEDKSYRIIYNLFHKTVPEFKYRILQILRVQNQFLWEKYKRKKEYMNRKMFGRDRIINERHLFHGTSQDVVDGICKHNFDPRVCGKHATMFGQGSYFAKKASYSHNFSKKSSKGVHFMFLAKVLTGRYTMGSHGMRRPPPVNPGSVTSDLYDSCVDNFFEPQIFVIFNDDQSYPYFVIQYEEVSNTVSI
Nature of the assay: PARP profiling, parsylation of immobilized histone. Type of assay: biochemical. The protocol: as §1

Structures are written as SMILES.

In general, inhibition refers to the drop in the measured response relative to a control, in per cent.

With `O=C(c1cc(Cc2n[nH]c(=O)c3ccccc23)ccc1F)N1CCN(C(=O)C2CC2)CC1` [Olaparib], the figures for the inhibition at 0.02 µM on PARP11 and at PARP7 were 96% and 87%, respectively.
